Measured values published in patent publication US10150763B2, “Histone deacetylase inhibitors and their use in therapy” (Karus Therapeutics Limited, priority 2012, dated 2018).

By UniProt entry, the sequences of proteins in these tests, tags left out.
UniProt Q9UBN7, whole entry, species assumed: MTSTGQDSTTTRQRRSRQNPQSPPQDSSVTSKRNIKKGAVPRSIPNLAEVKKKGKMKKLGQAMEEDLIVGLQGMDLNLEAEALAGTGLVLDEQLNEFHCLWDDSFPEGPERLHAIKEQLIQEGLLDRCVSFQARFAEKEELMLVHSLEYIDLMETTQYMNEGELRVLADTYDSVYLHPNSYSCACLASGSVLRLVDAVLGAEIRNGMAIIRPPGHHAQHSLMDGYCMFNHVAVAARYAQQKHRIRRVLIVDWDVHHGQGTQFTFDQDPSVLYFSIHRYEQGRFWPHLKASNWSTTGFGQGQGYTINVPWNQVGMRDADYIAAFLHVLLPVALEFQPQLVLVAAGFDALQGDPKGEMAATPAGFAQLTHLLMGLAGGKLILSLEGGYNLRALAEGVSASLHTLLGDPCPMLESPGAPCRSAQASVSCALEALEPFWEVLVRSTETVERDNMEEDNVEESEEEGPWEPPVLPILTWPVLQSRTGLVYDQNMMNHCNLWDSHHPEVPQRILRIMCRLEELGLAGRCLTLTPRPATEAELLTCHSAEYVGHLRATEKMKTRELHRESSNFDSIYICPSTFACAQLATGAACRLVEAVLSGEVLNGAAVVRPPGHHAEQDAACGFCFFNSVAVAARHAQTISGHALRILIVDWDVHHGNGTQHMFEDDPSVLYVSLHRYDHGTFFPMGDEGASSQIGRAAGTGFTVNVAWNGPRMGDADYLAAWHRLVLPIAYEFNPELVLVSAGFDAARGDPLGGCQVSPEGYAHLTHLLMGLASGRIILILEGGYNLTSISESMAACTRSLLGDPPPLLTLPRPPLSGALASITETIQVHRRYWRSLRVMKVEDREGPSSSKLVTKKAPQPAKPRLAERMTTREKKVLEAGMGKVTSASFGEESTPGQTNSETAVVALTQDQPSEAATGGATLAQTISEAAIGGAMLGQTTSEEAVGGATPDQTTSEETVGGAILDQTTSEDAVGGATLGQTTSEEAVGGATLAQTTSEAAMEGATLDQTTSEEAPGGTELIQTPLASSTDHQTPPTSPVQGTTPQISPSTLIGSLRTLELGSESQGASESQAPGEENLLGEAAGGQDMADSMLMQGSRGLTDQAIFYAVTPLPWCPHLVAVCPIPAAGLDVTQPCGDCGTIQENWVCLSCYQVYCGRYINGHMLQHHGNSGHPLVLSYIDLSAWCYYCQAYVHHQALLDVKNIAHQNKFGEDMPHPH
UniProt Q13547, whole entry, species assumed: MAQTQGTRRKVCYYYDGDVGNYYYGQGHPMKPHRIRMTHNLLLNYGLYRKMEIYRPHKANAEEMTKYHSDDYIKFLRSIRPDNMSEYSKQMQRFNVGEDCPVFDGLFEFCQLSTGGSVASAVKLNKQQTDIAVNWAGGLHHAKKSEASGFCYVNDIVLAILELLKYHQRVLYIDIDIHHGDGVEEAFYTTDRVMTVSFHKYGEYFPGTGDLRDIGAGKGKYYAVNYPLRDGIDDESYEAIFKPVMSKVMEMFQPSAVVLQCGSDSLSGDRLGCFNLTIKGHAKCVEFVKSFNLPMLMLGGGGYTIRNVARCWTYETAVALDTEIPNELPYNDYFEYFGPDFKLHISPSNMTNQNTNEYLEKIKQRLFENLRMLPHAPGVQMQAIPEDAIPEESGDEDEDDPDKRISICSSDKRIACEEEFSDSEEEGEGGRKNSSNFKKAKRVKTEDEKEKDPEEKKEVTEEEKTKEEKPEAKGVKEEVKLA

Legend:
HDAC6 = HDAC6 (Homo sapiens (Human), UniProt Q9UBN7); experiment: HDAC inhibitory activity assay (as described in WO2008/062201), HDAC6; format: biochemical; details: class symbol
HDAC1 = HDAC1 (Homo sapiens (Human), UniProt Q13547); experiment: HDAC inhibitory activity assay (as described in WO2008/062201), HDAC1; format: biochemical; details: class symbol

SMILES | IC50 (HDAC6) | IC50 (HDAC1)
Cn1ccc(N(CCCCCCCC(=O)NO)c2ccccn2)n1 [Example F, N-Hydroxy-8-((1-methyl-1H-pyrazol-3-yl)(pyridin-2-yl)amino)octanamide] | < 500 nM | 1 to 10 µM
Cc1nnc(N(CCCCCCCC(=O)NO)c2ccccn2)s1 [Example J, N-Hydroxy-8-((5-methyl-1,3,4-thiadiazol-2-yl)(pyridin-2-yl)amino)octanamide] | < 500 nM | –
O=C(CCCCCCCN(c1ccccn1)c1nc2ccccc2o1)NO [Example L, 8-(Benzo[d]oxazol-2-yl(pyridin-2-yl)amino)-N-hydroxyoctanamide] | – | > 10 µM
Cn1c(N(CCCCCCC(=O)NO)c2ccccn2)nc2ccccc21 [Example M, N-Hydroxy-7-((1-methyl-1H-benzo[d]imidazol-2-yl)(pyridin-2-yl)amino)heptanamide] | < 500 nM | –
